{
  "sequences": {"note": "Chains of the proteins cited; added tags and fusions are not shown.", "UniProt P06276, whole entry": "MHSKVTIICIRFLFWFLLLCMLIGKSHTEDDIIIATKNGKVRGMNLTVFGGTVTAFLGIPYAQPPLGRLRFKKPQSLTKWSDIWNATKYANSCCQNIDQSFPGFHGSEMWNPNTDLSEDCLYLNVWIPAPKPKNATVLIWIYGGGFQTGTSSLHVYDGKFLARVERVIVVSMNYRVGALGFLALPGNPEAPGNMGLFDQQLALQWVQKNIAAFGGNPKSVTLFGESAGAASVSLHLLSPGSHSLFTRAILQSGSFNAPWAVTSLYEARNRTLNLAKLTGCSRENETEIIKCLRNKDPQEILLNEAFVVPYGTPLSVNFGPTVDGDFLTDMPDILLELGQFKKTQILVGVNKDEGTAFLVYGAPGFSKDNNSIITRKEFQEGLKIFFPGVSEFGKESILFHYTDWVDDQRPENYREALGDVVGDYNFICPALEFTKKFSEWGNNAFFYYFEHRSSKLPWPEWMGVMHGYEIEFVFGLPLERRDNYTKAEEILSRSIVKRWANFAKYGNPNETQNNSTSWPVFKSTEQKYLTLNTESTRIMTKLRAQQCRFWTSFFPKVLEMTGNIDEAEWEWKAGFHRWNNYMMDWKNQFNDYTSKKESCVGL"},
  "source": "ChEMBL document CHEMBL6121005",
  "about": "(Eur J Med Chem, 2025)",
  "molecular_target": "Cholinesterase (Homo sapiens, UniProt P06276)",
  "experiment": "Inhibition of human serum BuChE using butyrylthiocholine iodide as substrate incubated for 10 mins followed by substrate addition by DTNB reagent based Ellman's method",
  "data": [
    {"smiles": "CCN(C)C(=O)Oc1cccc([C@H](C)N(C)C)c1", "note": "[RIVASTIGMINE]", "values": [
      {"measurement": "IC50", "value": 173, "unit": "nM"}
    ]}
  ]
}
